Assay results reported in EP0479899B1, “VASODILATORY AND IMMUNE SUPPRESSANT PEPTIDES” (THE PRESIDENT AND FELLOWS OF HARVARD COLLEGE, priority 1989, dated 1991).

Tests used:
rabbit skin = experiment: Vasodilator assay: erythema induction after intradermal injection into shaved rabbit back; format: in vivo
Protocol: Reversed-phase high-performance liquid chromatography (HPLC) on the extract of 105 pairs of salivary glands is depicted in Figure 1. 105 pairs of salivary glands were dissected in PBS. Lysates were made by freeze-thawing. The extract was spun in a microcentrifuge for 30 seconds before being applied to the column. A C-18 micropellicular HPLC column (Glycotech) was equilibrated with 20% acetonitrile/0.1% trifluoroacetic acid at 50°C at a flow rate of 0.6ml/minute. Three minutes after injection, a linear gradient was run for 20 minutes reaching 44% acetonitrile. Fractions were collected every 30 seconds and assayed for vasodilator activity. The vasodilator assay was performed by diluting material from the gradient 10 fold and injecting 50 µl intradermally into the shaved back of a rabbit. The development of erythema at the injection site corresponded with the peak indicated. One µg of human CGRP, used as a control peptide, eluted as a peak of equal area, five minutes later (not shown). This observation implies that approximately ten nanograms of LP are present per pair of salivary glands.
The amount of LP injected into the skin was based on the area of the absorbing peak collected from RP-HPLC. […] The area of resultant erythema was measured at 2 hours (triangles) and again at 4 hours (circles). […]

Human macrophages = experiment: H₂O₂ production by IFN-γ activated macrophages (scopoletin fluorometric assay); format: cell-based; settings: 3 hrs pretreatment
Source text: Monocytes obtained by leukophoresis of healthy volunteers were purified on Ficoll-hypaque and Percoll (Pharmacia, Piscataway, NJ) gradients and placed into microtiter wells (5 x 10⁵/well) in RPMI-1640 (GIBCO, Grand Island, NY) with 5% pooled normal human serum and 1% gentamycin (M.A. Bioproducts, Walkinville, MD). The cells were greater than 95% macrophages as judged by esterase staining. (The Manual of Macrophage Methodology, Herscowitz et al., eds. Marcel Dekker, NY, p. 199 (1981)). After one day in culture, non-adherent cells were rinsed away and the macrophages were treated, e.g., with human CGRP, Calcitonin, or LP as described below. Following treatment, the macrophages were incubated for three days with a concentration of from 100 to 400 units interferon gamma (Amgen Biologicals, Thousand Oaks, CA), in medium with 15% pooled normal human serum, at which time the H₂O₂ concentration in the cells was determined.
H₂O₂ production by macrophages was determined by fluorometric assay using the fluorophore scopoletin (de la Harpe et al., J. Immunol. Methods 78: 323 (1985)). […] The amount of H₂O₂ released per culture is determined as nanomoles H₂O₂. […] DNA was determined by a fluorescence assay (Kissane et al., J. Biol. Chem. 233: 184 (1958). […]

[1] = system: BALB/c peritoneal macrophages; experiment: Macrophage presentation of OVA to OVA-specific T-cell line (³H TdR incorporation); format: cell-based, BALB/c mice; settings: for Response(CPM±SD) to stimulation with 200mg/ml OVA / Response(CPM±SD) to stimulation with 400mg/ml OVA: rat CGRP 1.25 x 10⁻⁷ M preincubation 3 hrs
Source text: An OVA-specific T-cell line was produced in BALB/c mice (Titus et al., S. Immunol. 133:1594 (1984)). The line was L3T4⁺ and was maintained by successive cycles of restimulation and rest in vitro. (Kimono et al., J. Exp. Med. 152:759 (1980)). As a source antigen-presenting cells, BALB/c peritoneal cells (Titus et al., Clin. Exp. Immunol. 55:157, 1984) were placed into microtiter wells (10⁴/well) in Dulbecco's modified Eagle's medium (DMEM) (Maryanski et al., Eur. J. Immunol. 12:401 (1982) supplemented with 5% fetal calf serum (Hyclone, Logan, UT) and cultured overnight. Non-adherent cells were rinsed out of the wells, and medium with or without rat CGRP (1.25 x 10⁻⁷ M) was added as a pre-incubation step. Three hours later the wells were rinsed to remove the CGRP and the indicated number of OVA-specific T-cells (Sigma, St. Louis, MO) were added. At varying times thereafter, the wells were pulsed with lµCi³H methylthymidine (³H TdR) (Amersham, Arlington Heights, IL) and thymidine incorporation was assessed (Titus et al., J. Immunol. 133:1594 (1984)).
BALB/c peritoneal macrophages (10⁴/well) were used as antigen-presenting cells. The macrophages were preincubated in 1.25 x 10⁻⁷M rat CGRP for three hrs., and the CGRP was then washed away. OVA-specific T-cells and OVA were then added to the cultures to assist the ability of the CGRP-treated macrophages to present antigen as measured by the degree of proliferation of the T-cells. Forty-eight hours later the cultures were pulsed with ³H TdR to assess the degree of proliferation of the T-cells. The numbers in the Table below represent the mean thymidine incorporation of quadruplicate cultures ± SD. Background responses (macrophages + T-cells but no OVA, or T-cells + OVA but no macrophages) ranged between 300 to 500 CPM. Similar results were obtained with varying numbers (10³ to 2 X 10⁴/well) of peritoneal cell macrophages. The results in the Table indicate that the ability of murine macrophages to present OVA to an OVA-specific T-cell line was inhibited by CGRP. Similar results were obtained with different numbers of T-cells and different doses of OVA to stimulate the cultures.

Substance: calcitonin gene-related peptide (ACDTATCVTHRLAGLLSRSGGVVKNNFVPTNVGSKAF; Calcitonin gene-related peptide 1; UniProt P06881 83-119, looked up) [CGRP, neuropeptide calcitonin gene-related peptide, human, synthetic; vasodilator comparator and immune suppressant]
- erythema at injection site (rabbit skin; at 4 hours after injection, rabbit skin): only residual erythema
- amount giving an equivalent erythema (rabbit skin; two hours after injection, 50 µl of PBS into shaved back of a rabbit, triplicate injections): 50 nanograms
- H₂O₂ production at higher concentrations (Human macrophages; concentrations above 2.5 x 10⁻⁹ M, IFN-γ 200 units/ml): completely abrogated
- ability of the macrophages to produce H₂O₂ response to IFN-γ (Human macrophages; human CGRP, IFN-γ 100 to 400 units/ml, 72 hrs): markedly inhibit
- ability of murine macrophages to present OVA to an OVA-specific T-cell line ([1]; 1.25 x 10⁻⁷M, preincubation three hrs): inhibited
- Response(CPM±SD) to stimulation with 200mg/ml OVA ([1]; 15,000 T cells/well, medium control 5,710±1,300): 1,620± 910 CPM
- Response(CPM±SD) to stimulation with 400mg/ml OVA ([1]; 15,000 T cells/well, medium control 8,450±1,140): 2,620± 700 CPM
- Response(CPM±SD) to stimulation with 200mg/ml OVA ([1]; 30,000 T cells/well, medium control 5,230±1,150): 830± 500 CPM
- Response(CPM±SD) to stimulation with 400mg/ml OVA ([1]; 30,000 T cells/well, medium control 10,970± 800): 3,380±1,870 CPM
